{"source": "patent US20260000782A1", "about": "“ITGB2-MEDIATED DRUG DELIVERY SYSTEM” (TWINPIG BIOLAB INC., priority 2022, published 2026)", "key": {"[1]": {"system": "M2 macrophages", "experiment": "Mitochondrial targeting of TB511 in M2 macrophages", "type": "cell-based, human", "conditions": "M2 macrophages pretreated with ITGB2 antibody versus not pretreated", "source_text": "In addition, in M2 macrophages, the caspase-3 expression was increased by TB511, whereas in M2 macrophages pretreated with the ITGB2 antibody, the caspase-3 expression was decreased by TB511 (FIG. 21). Additionally, as a result of confirming the mitochondrial targeting of TB511, in the M2 macrophages pretreated with ITGB2 antibody, co-localization of the mitochondria and TB511 was decreased compared to cells not pretreated with ITGB2 (FIG. 21)."}, "[2]": {"system": "M2 macrophages", "experiment": "Caspase expression in M2 macrophages (Western blot, Real-time PCR, immunofluorescence)", "type": "cell-based, human", "conditions": "TB511 1 μM", "procedure": "To confirm whether TB511 induced apoptosis through ITGB2 in M2 macrophages, the M2 macrophages with suppressed ITGB2 expression fabricated in Example 7-1 above were pretreated with an anti-ITGB2 antibody (Polyclonal Rabbit anti-Human ITGB2/CD18 antibody) (LS-C312785; LS Bio) (1 μg) for 1 hour, and then reacted with TB511 (1 μM) for 1 hour. Thereafter, the induction of apoptosis was confirmed by cell viability analysis using the CCK-8 assay, protein expression of caspase-3, an apoptosis marker, was confirmed by Western blot analysis, gene expression of caspase-3, caspase-8, and caspase-9 was confirmed by Real-time PCR, and induction of protein expression of caspase-3 was confirmed by immunofluorescence."}, "[3]": {"system": "M2 macrophages", "experiment": "CCK-8 cell viability in M2 macrophages (control, ITGB2 knockdown, ITGB2 antibody pretreatment)", "type": "cell-based, human", "procedure": "As a cell model used to confirm whether apoptosis was induced through ITGB2 in M2 macrophages, a cell model in which the expression of ITGB2 was suppressed in M2 macrophages was fabricated using Crispr/cas9. Specifically, cells differentiated into M2 macrophages were cultured in an Opti-MEM medium. The Crispr/cas9 was mixed with Cas9 protein V2 (Thermo Fisher scientific) and gRNA (Genscript; ITGB2; Table 7) of a CRISPRMAX™ Reagent kit (Thermo Fisher scientific) and a Cas9 Plus™ Reagent (Thermo Fisher scientific), and a CRISPRMAX™ Reagent was diluted in the Opti-MEM medium, mixed together, and reacted for 5 to 10 minutes, and then added to cells differentiated into M2 macrophages and cultured at 37° C. for 2 to 3 days. Thereafter, the mRNA expression level of ITGB2 was confirmed.\nTo confirm whether Melittin-dKLA bound to ITGB2 to induce apoptosis in M2 macrophages, Melittin-dKLA (1 μM) was treated for 24 hours to M2 macrophages in which ITGB2 expression was suppressed by Crispr/cas9 fabricated in Example 7-1 above, and cell viability was analyzed using a CCK-8 assay. Specifically, Melittin-dKLA (1 μM) reacted with ITGB2 knockdown macrophages fabricated in Example 7-1 above for 1 hour. After the reaction, the medium was replaced and cultured at 37° C. for 24 hours. To determine cell viability, a CCK-8 reagent (Enzo Life Sciences) was added in 1/10 of the medium and reacted at 37° C. for 3 hours. Absorbance was measured at 450 nm using a microplate reader (Molecular Devices).\nTo confirm whether TB511 (TAMpep826-dKLA) induced apoptosis through ITGB2 in M2 macrophages, TB511 reacted with M2 macrophages in which ITGB2 expression was suppressed by Crispr/cas9 fabricated in Example 7-1 above.\nTo confirm whether TB511 induced apoptosis through ITGB2 in M2 macrophages, the M2 macrophages with suppressed ITGB2 expression fabricated in Example 7-1 above were pretreated with an anti-ITGB2 antibody (Polyclonal Rabbit anti-Human ITGB2/CD18 antibody) (LS-C312785; LS Bio) (1 μg) for 1 hour, and then reacted with TB511 (1 μM) for 1 hour. […]"}, "[4]": {"system": "Carboplatin-resistant A549 cells, CAFs, and THP-1 cells", "experiment": "Anticancer drug-resistant lung cancer 3D organoids (spheroids)", "type": "cell-based, human", "conditions": "TB511 1, 2, 4 μM; day 10 after drug treatment; immunofluorescence", "source_text": "(§1) To complement the limitations in vitro and replace in vivo, a 3D organoid mimicking a tumor microenvironment (TME) of breast cancer was fabricated and an effect of TB511 thereon was confirmed. Specifically, an RPMI-1640 culture medium was mixed to contain 3% Matrigel, and THP-1 cells fabricated to express GFP using MDA-MB-231 human breast cancer cells, Cancer-associated Fibroblast (CAF), and Incucyte®Nuclight Lentivirus Reagents (Sartorius) were counted and dispensed into a 96 u-bottom 3-D culture plate (Sbio) at a ratio of 5:1:1 to be 200 μl. […] From day 2 of spheroid formation, TB511 was treated every three days at concentrations of 1 μM, 2 μM, 4 μM, and 8 μM, and images were taken using a fluorescence microscope. After taking bright-field images, the spheroid area was measured using a method for measuring a Ferret diameter. In addition, the average tumor spheroid diameter was measured using an open source, and the average diameter of three spheroids was analyzed with ImageJ (software version 1.47 m). The spheroid size was analyzed by taking bright-field images (20×), and then measuring the average tumor spheroid diameter of three spheroids with ImageJ (software version 1.47 m). […] For THP-1, images of GFP fluorescence expressed within the cells were taken using a confocal microscope without performing separate staining, and the number of cells expressing fluorescence was measured. […]"}, "[5]": {"system": "MDA-MB-231 human breast cancer cells, CAFs and THP-1 cells", "experiment": "Breast cancer 3D organoids (spheroids)", "type": "cell-based", "conditions": "day 10", "source_text": "as §1"}, "[6]": {"system": "A549 human lung cancer cells, CAFs, and THP-1 cells", "experiment": "Lung cancer 3D organoids (spheroids)", "type": "cell-based", "source_text": "To complement the limitations in vitro and replace in vivo, a 3D organoid mimicking a tumor microenvironment (TME) of breast cancer was fabricated and an effect of TB511 thereon was confirmed. Specifically, an RPMI-1640 culture medium was mixed to contain 3% Matrigel, and THP-1 cells fabricated to express GFP using MDA-MB-231 human breast cancer cells, Cancer-associated Fibroblast (CAF), and Incucyte®Nuclight Lentivirus Reagents (Sartorius) were counted and dispensed into a 96 u-bottom 3-D culture plate (Sbio) at a ratio of 5:1:1 to be 200 μl. After culturing, the cells were collected by centrifugation at 1200 rpm for 3 minutes and then cultured in a 37° C. incubator for 48 hours to form spheroids. From day 2 of spheroid formation, TB511 was treated every three days at concentrations of 1 μM, 2 μM, 4 μM, and 8 μM, and images were taken using a fluorescence microscope. After taking bright-field images, the spheroid area was measured using a method for measuring a Ferret diameter. In addition, the average tumor spheroid diameter was measured using an open source, and the average diameter of three spheroids was analyzed with ImageJ (software version 1.47 m). The spheroid size was analyzed by taking bright-field images (20×), and then measuring the average tumor spheroid diameter of three spheroids with ImageJ (software version 1.47 m). Additionally, on day 10 of drug treatment, immunofluorescent staining was performed by fixing spheroids and reacting with an antibody (abcam) against ki-67, a tumor proliferation factor (control staining: DAPI). For THP-1, images of GFP fluorescence expressed within the cells were taken using a confocal microscope without performing separate staining, and the number of cells expressing fluorescence was measured.\nLung cancer 3D spheroids were fabricated by mixing A549 human lung cancer cells, CAFs, and THP-1 cells using the method of Example 8-1 above, and then treated with TB511 at concentrations of 1 μM, 2 μM, and 4 μM, respectively, and the effects thereof were analyzed as in Example 8-1 above. […]"}, "[7]": {"system": "Docetaxel-resistant PC3 prostate cancer cells, CAFs, and THP-1 cells", "experiment": "Anticancer drug-resistant prostate cancer 3D organoids (spheroids)", "type": "cell-based", "conditions": "TB511 1, 2, 4 μM; day 10 after drug treatment; immunofluorescence", "source_text": "as §1"}, "[8]": {"conditions": "M2 macrophages pretreated with the ITGB2 antibody"}, "[9]": {"conditions": "TB511 1, 2, 4 μM, day 10 after drug treatment, fluorescent staining"}}, "data": [{"compound": "CC[C@H](C)[C@H](NC(=O)[C@H](CC(C)C)NC(=O)[C@H](C)NC(=O)[C@@H]1CCCN1C(=O)[C@H](CC(C)C)NC(=O)CNC(=O)[C@@H](NC(=O)[C@@H](NC(=O)[C@H](CC(C)C)NC(=O)[C@@H](N)C(C)C)[C@@H](C)O)[C@@H](C)O)C(=O)N[C@@H](CO)C(=O)N[C@@H](Cc1c[nH]c2ccccc12)C(=O)N[C@H](C(=O)N[C@@H](CCCCN)C(=O)N[C@@H](CCCNC(=N)N)C(=O)N[C@@H](CCCCN)C(=O)N[C@@H](CCCNC(=N)N)C(=O)N[C@@H](CCC(N)=O)C(=O)N[C@@H](CCC(N)=O)C(=O)NCC(=O)NCC(=O)NCC(=O)NCC(=O)N[C@@H](CO)C(=O)N[C@H](CCCCN)C(=O)N[C@H](CC(C)C)C(=O)N[C@H](C)C(=O)N[C@H](CCCCN)C(=O)N[C@H](CC(C)C)C(=O)N[C@H](C)C(=O)N[C@H](CCCCN)C(=O)N[C@H](CCCCN)C(=O)N[C@H](CC(C)C)C(=O)N[C@H](C)C(=O)N[C@H](CCCCN)C(=O)N[C@H](CC(C)C)C(=O)N[C@H](C)C(=O)N[C@H](CCCCN)C(=O)O)[C@@H](C)CC", "note": "[TB511]", "values": [{"measurement": "co-localization of the mitochondria and TB511", "setting": "[1]", "value": "decreased"}, {"measurement": "caspase-3 expression (immunofluorescence)", "setting": "[2]; [8]", "value": "decreased"}, {"measurement": "caspase-3 expression (protein, Western blot)", "setting": "[2]; [8]", "value": "significantly decreased"}, {"measurement": "expression of caspase-3, caspase-8, and caspase-9 (gene, Real-time PCR)", "setting": "[2]; [8]", "value": "significantly decreased"}, {"measurement": "caspase-3 expression (immunofluorescence)", "setting": "[2]; M2 macrophages", "value": "increased"}, {"measurement": "caspase-3 expression (protein, Western blot)", "setting": "[2]; M2 macrophages", "value": "significantly increased"}, {"measurement": "expression of caspase-3, caspase-8, and caspase-9 (gene, Real-time PCR)", "setting": "[2]; M2 macrophages", "value": "significantly increased"}, {"measurement": "cell viability", "setting": "[3]; M2 macrophages pretreated with the ITGB2 antibody (1 μg, 1 hour), then TB511 1 μM 1 hour, CCK-8", "value": "significantly increased"}, {"measurement": "cell viability", "setting": "[3]; M2 macrophages, ITGB2 antibody 1 μg 1 hour or TB511 1 μM 1 hour, CCK-8", "value": "significantly reduced"}, {"measurement": "cell viability", "setting": "[3]; cells where ITGB2 expression was suppressed (Crispr/cas9), TB511, versus M2 macrophages", "value": "significantly increased"}, {"measurement": "number of THP-1 cells", "setting": "[4]", "value": "significantly decreased in a concentration-dependent manner"}, {"measurement": "tumor proliferation factor ki-67", "setting": "[4]", "value": "significantly decreased from 2 μM"}, {"measurement": "size of spheroids", "setting": "[5]; TB511 1, 2, 4, 8 μM every three days, versus untreated", "value": "decreased in a concentration-dependent manner from a concentration of 1 μM"}, {"measurement": "number of THP-1 cells expressing GFP fluorescence", "setting": "[5]; TB511 1, 2, 4, 8 μM, versus drug-untreated group", "value": "significantly decreased in a concentration-dependent manner"}, {"measurement": "size of spheroids", "setting": "[6]; 1, 2, 4 μM, versus untreated", "value": "significantly reduced in a concentration-dependent manner"}, {"measurement": "number of THP-1 cells", "setting": "[6]; [9]", "value": "significantly decreased in a concentration-dependent manner"}, {"measurement": "tumor proliferation factor ki-67", "setting": "[6]; [9]", "value": "decreased in a concentration-dependent manner"}, {"measurement": "number of THP-1 cells", "setting": "[7]", "value": "significantly decreased in a concentration-dependent manner"}, {"measurement": "tumor proliferation factor ki-67", "setting": "[7]", "value": "tended to be reduced"}]}]}
